Literature values in patent US20020147137A1, “Medical use of alpha1-acid glycoprotein (AAG) or orosomucoid” (Hamosan Erzeugung Pharmazeutischer Grundstoffe Gesellschaft …, priority 1999, published 2002).

Test system: isolated perfused rat livers
Settings: protein added to perfusate; drugs binding to albumin or not; cited from earlier work

Question: With human serum albumin as the substance, how does the “influence on elimination of drugs” value read?
Answer: Its value is “accelerate the elimination of drugs”.
